The experiment has as its target hGlyT-2 (Homo sapiens, UniProt Q9Y345). Kind of experiment: Glycine uptake assay, CHO cells stably transfected with hGlyT-2. The note with it: read-out: Inhibition of glycine transport by hGlyT-2 IC50, [3H]-glycine 30 μM, 37° C., 10 minutes. The format is cell-based. As for the experimental part: Glycine uptake assays were performed as described by Morrow et al. (FEBS Lett. 1998, 439, 334–340) using CHO cells stably transfected with either hGlyT-1b or hGlyT-2. Cells were grown in 96 well microtitre plates (30,000 cells/well) for 24–48 hours before removal of culture medium and addition of Hanks Balanced Salt Solution (HBSS) containing [^3H]-glycine (30 μM) and varying concentrations of test compounds. Plates were incubated at 37° C. for 10 minutes and uptake terminated by washing three times with ice-cold HBSS. After removal of excess liquid, scintillation cocktail was added to each well, prior to counting in a plate counter. Data were analysed using the GraphPad Prism™ analysis package and the sigmoid dose-response curve fitting option to produce IC50 (the concentration of test compound producing 50% inhibition of uptake) values.

Sequences of proteins named here, by UniProt entry; tags and fusion partners are left off. A change or cut given only in a name is not applied to a line headed by its entry.
UniProt Q9Y345: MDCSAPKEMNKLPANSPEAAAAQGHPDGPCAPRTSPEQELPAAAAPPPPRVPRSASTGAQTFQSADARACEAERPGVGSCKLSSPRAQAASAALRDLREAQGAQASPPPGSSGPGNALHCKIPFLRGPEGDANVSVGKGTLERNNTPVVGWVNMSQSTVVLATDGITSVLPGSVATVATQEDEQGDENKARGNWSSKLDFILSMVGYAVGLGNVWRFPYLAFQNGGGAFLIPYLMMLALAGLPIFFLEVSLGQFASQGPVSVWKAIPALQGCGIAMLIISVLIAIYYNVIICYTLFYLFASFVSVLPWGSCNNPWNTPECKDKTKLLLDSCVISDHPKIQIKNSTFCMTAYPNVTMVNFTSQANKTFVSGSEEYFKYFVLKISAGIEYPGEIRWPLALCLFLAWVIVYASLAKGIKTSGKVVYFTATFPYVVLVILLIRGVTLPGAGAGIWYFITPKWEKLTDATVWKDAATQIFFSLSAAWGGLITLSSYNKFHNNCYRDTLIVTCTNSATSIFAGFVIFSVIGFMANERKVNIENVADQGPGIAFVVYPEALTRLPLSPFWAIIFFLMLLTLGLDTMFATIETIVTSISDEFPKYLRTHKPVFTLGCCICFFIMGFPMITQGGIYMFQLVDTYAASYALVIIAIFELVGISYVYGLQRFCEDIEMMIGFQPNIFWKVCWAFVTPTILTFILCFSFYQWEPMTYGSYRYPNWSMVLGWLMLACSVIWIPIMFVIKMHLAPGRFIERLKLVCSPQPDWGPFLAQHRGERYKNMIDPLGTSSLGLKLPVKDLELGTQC

With `CCCCOc1c(OC)cc(C(=O)NCC2(N(C)CC)CCCCC2)cc1OC`, the concentration for half-maximal inhibition (IC50) was found to be 1.32 µM.

Values taken from patent publication US7126027B2, “N-[(1-dimethylaminocycloalkyl)methyl]benzamide derivatives” (Akzo Nobel N.V., priority 2002, dated 2006).
